Reference: ChEMBL document CHEMBL5390260, “4-(3-Phenyl-4-(3,4,5-trimethoxybenzoyl)-1H-pyrrol-1-yl)benzenesulfonamide, a Novel Carbonic Anhydrase and Wnt/β-Catenin Signaling Pathway Dual-Targeting Inhibitor with Potent Activity against Multidrug Resistant Cancer Cells” (J Med Chem, 2023)

By UniProt entry, the sequences of proteins in these tests, tags left out. Where a name states a change or a piece, a line headed by the entry shows the natural chain unless it says otherwise.
UniProt P00915: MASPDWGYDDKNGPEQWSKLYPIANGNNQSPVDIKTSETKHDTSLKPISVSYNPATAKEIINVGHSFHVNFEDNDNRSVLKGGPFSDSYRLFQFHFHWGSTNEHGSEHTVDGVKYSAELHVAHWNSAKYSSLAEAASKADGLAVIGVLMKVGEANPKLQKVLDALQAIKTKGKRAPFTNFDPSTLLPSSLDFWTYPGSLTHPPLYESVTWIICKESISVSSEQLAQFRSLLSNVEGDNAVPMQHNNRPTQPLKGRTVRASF

Experiments:
Carbonic anhydrase 1 = Carbonic anhydrase 1 (Homo sapiens, UniProt P00915); test: Binding affinity to human recombinant CA1 assessed as inhibition constant incubated for 15 mins by phenol red dye based stopped flow CO2 hydration assay
Carbonic anhydrase 2 = Carbonic anhydrase 2 (Homo sapiens, UniProt P00918); test: Binding affinity to human recombinant CA2 assessed as inhibition constant incubated for 15 mins by phenol red dye based stopped flow CO2 hydration assay

| SMILES | Ki (Carbonic anhydrase 1) [nM] | Ki (Carbonic anhydrase 2) [nM] |
| --- | --- | --- |
| NS(=O)(=O)c1ccc(-n2ccc(C(=O)c3ccccc3)c2)cc1 | 73.1 | 57.5 |
| NS(=O)(=O)c1ccc(-n2cc(C(=O)c3ccccc3)c3ccccc32)cc1 | 328 | 41.7 |
| NS(=O)(=O)c1ccc(-n2cc(C(=O)c3ccccc3)c(-c3ccccc3)c2)cc1 | 209 | 72.4 |
| COc1cc(C(=O)c2ccn(-c3ccc(S(N)(=O)=O)cc3)c2)cc(OC)c1OC | 95.6 |  |
